pIC50: −log10 of the molar value.
Target: B7-1/CD28 (Homo sapiens, UniProt P33681)
Experiment: CD28/B7-1 ELISA (B7-1/CD28 binding inhibition)
Settings: read-out: B7-1/CD28 Inhibition IC50; CD28-Fc coated wells; B7-1-Fc-biotin/streptavidin-alkaline phosphatase detection complex; 1% DMSO
Description: Evaluation of B7-1/CD28 Binding Inhibition for Test Compounds
Wells are coated with 300 ng CD28-Fc in carbonate buffer (pH 9.4) overnight at 4° C., blocked with 1% bovine serum albumin in tris-buffered saline (TBS) for 1 h at 22° C. and washed 3 times in TBS prior to assay. The detection complex is formed as follows: B7-1-Fc-biotin, prepared using NHS-LC-biotin (Pierce #21335) according to the manufacturers instructions (4.1 moles biotinimole Fc), is added at 0.8 ug/ml to streptavidin-alkaline phosphatase (Caltag Sa1008) at 1:1000 in TBS. A solution of test compound in dimethylsulfoxide (1% final) are added to this complex and incubated 30 min at 22° C. Detection complex (+/−inhibitors) is then added to the CD28 coated wells for 25 min at 22° C., washed 5 times with TBS, developed with the colorimetric substrate pNPP (Pierce #34045) in diethanolamine/MgCl2 buffer (pH 9.5) and read at 405 nm. The inhibition constant (IC50) is calculated by subtracting background binding and comparing to uninhibited (DMSO alone) controls. The inhibition constant represents the concentration of test compound required to achieve 50% inhibition.

Amino acid sequences for entries named in this document (tags omitted). Residues count along the entry.
UniProt P33681, 35-242 limits assumed: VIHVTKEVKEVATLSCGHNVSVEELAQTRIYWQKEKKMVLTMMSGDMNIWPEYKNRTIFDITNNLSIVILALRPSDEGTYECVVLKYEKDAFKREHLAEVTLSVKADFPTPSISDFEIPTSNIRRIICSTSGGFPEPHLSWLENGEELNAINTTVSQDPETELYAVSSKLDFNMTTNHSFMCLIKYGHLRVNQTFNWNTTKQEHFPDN

COC(=O)c1cccc(NC(=O)c2ccc(-n3[nH]c4c(c(-c5cccc(C(F)(F)F)c5)nc5c4cnn5C)c3=O)cc2)c1 [Example 42]
pIC50: 7.14

Cn1ncc2c3[nH]n(-c4ccc(C(=O)Nc5ccc(CCO)cc5)c(F)c4)c(=O)c3c(-c3cccc(C(F)(F)F)c3)nc21
pIC50: 7.19

CC(O)c1cccc(NC(=O)c2ccc(-n3[nH]c4c(c(-c5cccc(C(F)(F)F)c5)nc5c4cnn5C)c3=O)cc2Cl)c1 (stereo not drawn)
pIC50: 6.26

Cn1ncc2c3[nH]n(-c4ccc(C(=O)Nc5ccc(O)cc5)c(F)c4)c(=O)c3c(-c3cccc(C(F)(F)F)c3)nc21
pIC50: 7.51

Cn1ncc2c3[nH]n(-c4ccc(C(=O)N5CCOCC5)c(Cl)c4)c(=O)c3c(-c3cccc(C(F)(F)F)c3)nc21
pIC50: 7.08

Cn1ncc2c3[nH]n(-c4ccc(F)c(C(=O)Nc5ccc(O)cc5)c4)c(=O)c3c(-c3cccc(C(F)(F)F)c3)nc21
pIC50: 6.55
